Experimental data: patent publication US20020115688A1, “Screen for glutamate reuptake inhibitors, stimulators, and modulators” (priority 2000, published 2002)

Test system: T1, glutamate transporters (GLAST and GLT1)
T1 construct: Bmax; other: rat brain membrane homogenates; other: 20 nM [3H]-4MG, 15 minutes at 4° C; KD; association t½
Experiment: [3H]-4MG binding to rat brain membrane homogenates
Details: FIG. 1
Method: Rat brain tissue, either freshly dissected or stored frozed at −20° C. is homogenized in HEPES buffer containing Na^+(5 mM HEPES, 96 mM NaCl, 1.8 mM CaCl2, 1 mM MgCl2 (pH 7.5 at 25° C.)), and membranes are washed twice in the same buffer using standard methods for subcellular fractionation and the preparation of brain membranes. Brain tissue is weighed and homogenized in 15 ml of assay buffer using a Polytron tissue homogenizer (setting 4, 10-15 seconds). […] The homogenate is centrifuged again (as above) and the pellet re-suspended in 20 to 25 volumes of buffer. Membrane homogenates make up 20% of final assay volume. Binding assays are also performed in the above buffer.
The range of concentrations of the receptor compound (for example, 10 nM-1 mM) is varied dependent on whether all or only a trace of the receptor compound is labeled. […] Binding is determined by any technique suitable for the label used. […]
Forebrain tissue from female Sprague Dawley rats was homogenised in HEPES buffer containing Na^+, and membranes were washed twice in the same buffer. […] Binding was determined by scintillation spectrometry. […] Data were analyzed using computer-assisted curve fitting. Values are expressed as mean of at least triplicate determinations and multiple experiments. […]

## C[C@H](C[C@H](N)C(=O)O)C(=O)O [4MG, (2S,4R)-4-methyl glutamic acid]
  association t½: approximately 20 min
